Assay results: patent publication EP1991561B1, “BRANCHED MULTIMERIC PEPTIDES FOR TUMOR DIAGNOSIS AND THERAPY” (Universita' Degli Studi di Siena, priority 2006, dated 2007)

Test system: HT29 tumors
Conditions: 4.05 µmol/kg iv on days 0, 5, 10 and 15
Protocol: Female CD-1 nude mice (Charles River Laboratories Inc., Wilmington, MA) 6-7 weeks of age (mean weight of 25 g), were injected subcutaneously in the right flank with of 2 x 10^6 HT29 cells.
Tumor volumes were measured daily with a caliper using the following formula: Volume = length x width^2 x Π/6. The tumor volumes for each group were pooled to plot mean tumor growth curves. At the end of the experiment, the mice were sacrificed. Tumors were removed and weighed and the weights compared between treated and control mice.

tetrabranched NT(8-13)-PEG-Methotrexate [NT4(8-13)-MTX]
loss of body weight: less than 10%
